Consider 1 substance from US7217730B2, “Method for the use of pyranoindole derivatives to treat infection with Hepatitis C virus” (Wyeth, priority 2002, dated 2007).

The test system of this assay is Hepatitis C virus replicon (1b) in Clone A cells (Huh-7). The experiment in a line: HCV replicon ELISA (NS5a) in Clone A cells. The format is cell-based. To be noted: reference compound, 3 days. The procedure:
The ability of the compounds of the present invention to inhibit Hepatitis C virus replicon constitutively expressed in a human liver cell line was established by the following experimental procedure: • Clone A cells (licensed from Apath, LLC) are derived from Huh-7 cells (human hepatoma cell line) and constitutively express the HCV replication proteins with concomitant amplification the HCV replicon (1b) genome. Cells are maintained and passaged in DMEM/10% FCS/1 mg/ml G418 (Geneticin from Gibco #11811-023; other media components as described below in “elisa media”). Care should be taken to maintain cell monolayers at a subconfluent state by 1:3 or 1:4 passages every 3–4 days. The replicon is extremely sensitive to the cellular metabolism/proliferation state and replicon copy number will rapidly decline in confluent monolayers (resting cells). Under ideal conditions each cell has, on average, 1000 copies of the HCV replicon genome.
Dulbecco's Modified Eagle Media (DMEM) (Gibco #12430-047)
2% Fetal Calf Serum (FCS) (HyClone #SH30070.03)
1× Non-essential amino acids (NEAA) (Gibco #11140-050)
Glutaraldehyde (Fisher #02957-4)
Superblock in Phosphate Buffered Saline (PBS) (Pierce #37515) […]
10 μl of compounds (in DMSO) are added to column 3 of the mother plate. […] Mother plates are set aside until ready for serial dilution to be performed. […]
Read plates with optical density (O.D.) 450 filter. […]
(In general: In antiviral work, replicon cells carry a viral genome segment that copies itself.)

For “Interferon-a2: reference compound of the HCV replicon ELISA assay”, the IC50 is given as 4–30 U/ml.
